AlphaSeq binding of Ab-14 light chain variants to a spike HR2 peptide

Binding partner: SARS-CoV-2 spike HR2 peptide, sequence PDVDLGDISGINAS.

Each scFv is VH, the linker GGGGSGGGGSGGGGS, VL, as in the parent Ab-14, and differs from it in the CDRs of the light chain only.
VH: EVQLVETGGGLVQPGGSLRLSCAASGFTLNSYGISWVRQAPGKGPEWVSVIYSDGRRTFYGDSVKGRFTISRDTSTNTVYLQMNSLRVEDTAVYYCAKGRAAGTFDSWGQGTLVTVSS
VL: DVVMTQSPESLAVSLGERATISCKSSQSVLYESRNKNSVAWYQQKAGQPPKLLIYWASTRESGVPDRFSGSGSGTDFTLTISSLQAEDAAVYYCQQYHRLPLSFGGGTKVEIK

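The parent was found by panning a naive human phage display library on the peptide. AAYL50 was designed without a model: most single CDR substitutions and a random sample of double and triple ones. In AlphaSeq, yeast of one mating type display the scFv and yeast of the other type display the target. After mating in shaken culture at 30 °C for 16 h, diploids were selected and their barcode pairs sequenced. A regression on co-assayed BCL2-family reference pairs converts the normalised counts of each replicate to an apparent Kd. The assay was run in three technical replicates.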

The parent's light chain CDRs are KSSQSVLYESRNKNSVA, WASTRES, QQYHRLPLS; each variant's own CDRs replace them letter for letter.
Every variant below is changed at K24 of the VL (sequential numbering).
Kd is apparent (estimated from mating counts) and averaged on the log scale over replicates with a signal. Smaller is tighter.
Where no diploid with the target was found in any replicate, the entry reads "no signal": below detection, most likely a poor binder, though not proof of it.
Nonspecific signal, from three strains lacking the peptide, appeared in 18% of pairings of library AAYL50, centred on 15 µM (5% of these signals below 970 nM); values are not corrected for it.

For GSSQSVLYESRNKNSSA / WAATRES / QQYHRLPLS, the assay gave 4.6 µM (1 of 3 replicates). The variant GSSQSVLYYSRNKNSVA / WASTRES / QQYHHLPLS showed 440 nM (3 of 3 replicates). The variant DSFQSVLYEHRNKNSVA / WASTRES / QQYHRLPLS gave 520 nM (2 of 3 replicates). The variant FSSQSVLYESRNKNSVA / WASTRES / QQYHRLPLM showed 280 nM (2 of 3 replicates). The variant NVSQSVLYESRNKNGVA / WASTRES / QQYHRLPLS showed 11 nM (3 of 3 replicates). With VSSQSVLYESRNKNSCA / WASTRES / QQYHRLPLS the result was 85 µM (1 of 3 replicates). For RSSQSVLYESRNKNSVA / WASTRES / QQPHRTPLS, the assay gave 25 nM (3 of 3 replicates).

With MSSQSVLYESHNKNSNA / WASTRES / QQYHRLPLS the result was 3.0 µM (1 of 3 replicates). For YSSQSVLYESRNKMSVA / WASTRES / QQYHRLYLS, the assay gave 2.5 µM (1 of 3 replicates). For QSSQSVLYERRNKNSVA / WASTRMS / QQYHRLPLS, the assay gave 490 nM (2 of 3 replicates). The variant LSSQSVLYESRNCNSVA / WKSTRES / QQYHRLPLS showed 7.7 µM (2 of 3 replicates). With SSSQSVLYESRNKNSVA / WASTRES / QQTHRLPCS the result was 1.7 mM (1 of 3 replicates). The variant ISSQNVLYESRNKNSVA / WASTREL / QQYHRLPLS gave 49 nM (3 of 3 replicates). For PSSQSVLMESRNKNSVA / WASTRES / QQYHRLPSS, the assay gave 5.1 µM (1 of 3 replicates).

The variant WSSQSVWYESRNKNSVA / WASTRES / QQYHRLILS showed 960 nM (3 of 3 replicates). For WSSQSVLYESRNKNSSA / WASTRRS / QQYHRLPLS, the assay gave 48 µM (1 of 3 replicates). The variant PSSQSVLYESRNKNSVA / WASTRES / QQDIRLPLS showed no signal (0 of 3 replicates). For NSWQSVLYESRNKNKVA / WASTRES / QQYHRLPLS, the assay gave no signal (0 of 3 replicates). The variant SSSQGVLYESMNKNSVA / WASTRES / QQYHRLPLS showed 2.6 nM (3 of 3 replicates). For WSEQCVLYESRNKNSVA / WASTRES / QQYHRLPLS, the assay gave 170 µM (1 of 3 replicates). With WSSQSVLYFSRNKNSVA / WASTRES / QQYDRLPLS the result was 1.1 µM (2 of 3 replicates).

The variant SSGQSVLYESPNKNSVA / WASTRES / QQYHRLPLS gave 28 nM (3 of 3 replicates). For LSSQSVLYASRNKNSVS / WASTRES / QQYHRLPLS, the assay gave no signal (0 of 3 replicates). The variant QSSQMVLYESRNKNSVA / AASTRES / QQYHRLPLS showed 1.1 nM (3 of 3 replicates). With HSVQSVLYESRNKNGVA / WASTRES / QQYHRLPLS the result was 3.9 µM (3 of 3 replicates). With ASSQSVLYESRPKNSVA / WASTRES / QQYHRLKLS the result was 2.8 µM (1 of 3 replicates). The variant PSYQSVLYESRNKNSVA / WASTRES / QQYHRLPLS gave no signal (0 of 3 replicates). The variant HSSQSVSYESRNKNSVA / WASTRES / QQGHRLPLS showed 1.2 µM (1 of 3 replicates).

For GSSQSVRYVSRNKNSVA / WASTRES / QQYHRLPLS, the assay gave 1.3 µM (3 of 3 replicates). The variant LSSQSVLYESRNKNSCA / WASTRES / QQYHRLLLS gave no signal (0 of 3 replicates). With LSSQSVLYESRNKNSVA / KASTRES / QQYHRLPNS the result was 3.8 nM (3 of 3 replicates). The variant NSSQSYLYESRNKNSVA / WASPRES / QQYHRLPLS showed 680 nM (1 of 3 replicates). With LSSQSVLYESRNKNSVA / WASTRES / QQYHQLPLC the result was 18 µM (1 of 3 replicates). The variant HSSQSVGYESRMKNSVA / WASTRES / QQYHRLPLS showed 8.1 nM (3 of 3 replicates). The variant HSSQSVLYESRNKNSVA / LASTRPS / QQYHRLPLS gave 2.1 µM (3 of 3 replicates).

The variant SSSQSVLYESRNKNSVV / WPSTRES / QQYHRLPLS gave 79 µM (1 of 3 replicates). The variant WSSQSVLYESRNKNSVH / DASTRES / QQYHRLPLS showed 1.5 mM (1 of 3 replicates). The variant SSSQSVLYESRNKNSVA / WAETRET / QQYHRLPLS gave 14 nM (3 of 3 replicates). With PSSQSFLYESRNANSVA / WASTRES / QQYHRLPLS the result was 43 µM (1 of 3 replicates). With TSSQSVLYESRNKNSVA / PASTRRS / QQYHRLPLS the result was 14 µM (2 of 3 replicates). With SSSQSVLYEIRNKNSVA / WASTRES / QQYHRLPLY the result was 10 µM (3 of 3 replicates). With FSSQSVLYESINKNSVA / WASMRES / QQYHRLPLS the result was 27 nM (3 of 3 replicates).

With QSSQSVLYESRGKNSVA / WASTRES / QQYHNLPLS the result was 270 nM (2 of 3 replicates). With NSSQSVLYESRNKNSVA / WASTRES / QQYHNEPLS the result was no signal (0 of 3 replicates). The variant QSSQNVLYESRNKNSVA / WASTRES / QQYHRHPLS gave 62 µM (1 of 3 replicates). With DSSQSVLWEVRNKNSVA / WASTRES / QQYHRLPLS the result was 920 µM (1 of 3 replicates). The variant QSSQSVLYESRNCNSVA / WASTRES / QQSHRLPLS gave 1.7 µM (1 of 3 replicates). With RSSQSVLYESRNKNSVA / WSCTRES / QQYHRLPLS the result was no signal (0 of 3 replicates). With VSSQSVLYESRNKNSVA / WASTREK / QQYHRLPYS the result was 37 µM (2 of 3 replicates).

The first 5 entries again:

With GSSQSVLYESRNKNSSA / WAATRES / QQYHRLPLS the result was 4.6 µM (1 of 3 replicates).
With GSSQSVLYYSRNKNSVA / WASTRES / QQYHHLPLS the result was 440 nM (3 of 3 replicates).
With DSFQSVLYEHRNKNSVA / WASTRES / QQYHRLPLS the result was 520 nM (2 of 3 replicates).
With FSSQSVLYESRNKNSVA / WASTRES / QQYHRLPLM the result was 280 nM (2 of 3 replicates).
With NVSQSVLYESRNKNGVA / WASTRES / QQYHRLPLS the result was 11 nM (3 of 3 replicates).

Parent in this assay: reference entry 4.4 nM, copy in this library 48 nM.

Values reported by Engelhart et al. 2022, doi:10.1038/s41597-022-01779-4 (FLAb copy).